The source of these data is EP4837913A2, “SMALL MOLECULE INHIBITOR OF CATHEPSIN C AND MEDICINAL USE THEREOF” (dated 2026).

Series [1] can be described thus: Pharmacokinetic experiment in BALB/c mice. The settings on record: PO, 5 mg/kg.
Series [2] can be described thus: Pharmacokinetic experiment in beagle dogs.
Series [3] concerns rhCatC. The series can be described thus: In vitro enzyme activity experiment of rhCatC (AMC fluorescence assay, substrate H-Gly-Arg-AMC). To be noted: read-out: Biological activity IC50, 30 min pre-incubation.
The test system of series [4] is CatC. Put plainly: In vitro CatC cell activity experiment in the U937 cell line. The settings on record: read-out: Biological activity IC50, U937 cells, 1 hour compound incubation.

Consider `N#Cc1ccc2c(c1)COc1cc(C[C@@H](C#N)NC(=O)[C@@H]3CNCCCO3)c(F)cc1-2`, for which the maximum concentration (Cmax) in series [1] turned out to be 1340 ng/mL; in series [2] (PO, 2 mg/kg) it was 577 ng/mL. For the same compound, the “clearance rate decreased, compared with AZD7986” value in series [2] (IV 1 mg/kg) is “about 3 times”.

Regarding “(S)-1-Amino-N-(1-cyano-2-(2-(4-fluorophenyl)-3-oxo-1,2,3,4-tetrahydroisoquinolin-6-yl)ethyl)cyclohexane-1-carboxamide”, in series [3], the IC50 came to 17 nM.

On to `N#CC(Cc1ccc2c(c1)COc1cc(F)ccc1-2)NC(=O)C1(N)CCOCC1` (stereo not drawn), for which the IC50 in series [3] turned out to be 14.5 nM; in series [4] it was 8.3 nM.

By Cmax is commonly meant the highest concentration seen after dosing. For orientation: IC50 means the concentration that inhibits the measured activity by half.
